# Yeast mating assay 2: variants of the scFv Ab-95

The target is the same throughout: PDVDLGDISGINAS, from the HR2 region of SARS-CoV-2 spike.

Each scFv is VH, a (GGGGS)3 linker, VL, as in the parent Ab-95, and differs from it in the CDRs of the light chain only.
VH: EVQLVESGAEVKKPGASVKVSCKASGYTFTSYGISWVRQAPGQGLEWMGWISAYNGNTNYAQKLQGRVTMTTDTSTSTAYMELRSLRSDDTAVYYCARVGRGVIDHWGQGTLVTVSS
VL: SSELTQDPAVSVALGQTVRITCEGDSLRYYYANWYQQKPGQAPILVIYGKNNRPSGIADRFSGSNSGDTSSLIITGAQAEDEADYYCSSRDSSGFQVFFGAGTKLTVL

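The parent was found by panning a naive human phage display library on the peptide. AAYL52 was designed without a model: most single CDR substitutions and a random sample of double and triple ones. AlphaSeq pools MATa yeast showing the antibodies with MATalpha yeast showing the peptide. The frequency of each diploid, read from paired DNA barcodes, reflects how well the two displayed proteins bind. Read counts were normalised to the haploid input and turned into Kd by a linear fit to BCL2-family pairs of known affinity, for each replicate. Each pool was mated in three replicate cultures.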

Substitutions are numbered in sequence along the VL above, starting at 1 (not Kabat).
Affinities are written as log10 Kd with Kd in nM; a lower number is a better binder.
A pair that was not seen in that replicate is written "n.d."; this usually means weak binding, but a binder can also be missed.
Parent in this assay: reference entry 2.31, copy in this library 2.25.
Empty control strains, which show no peptide, gave a signal in 28% of pairings with library AAYL52; the median was 3.91 and 95% of these signals were weaker than 2.90. No background was subtracted. The control count says in how many pairings with the empty strains this scFv gave a signal, with their mean in brackets.

changes	log10 Kd (nM) by replicate	empty controls
G49T+G94W	5.50 n.d. n.d.	4 of 9 (3.74)
G49C+K50Q+S55R	n.d. 4.40 4.50	3 of 9 (4.84)
S26T+S55L+Q96D	3.42 3.53 3.12	5 of 9 (3.75)
Y30M+N33F+S92E	3.37 n.d. n.d.	2 of 9 (3.79)
R28W+S88I+V97F	n.d. n.d. n.d.	0 of 9
L27A+Y30G+D91W	3.05 n.d. n.d.	1 of 9 (2.90)
Y31K+S88W+S89F	4.31 n.d. n.d.	5 of 9 (4.27)
A32F+N33V+F95C	4.02 n.d. n.d.	3 of 9 (3.45)
Y30E+P54I+S92A	1.85 1.67 1.29	6 of 9 (4.55)
Y29R+S88L+S93E	n.d. 5.66 n.d.	0 of 9
P54E+S92F+Q96R	n.d. 4.93 2.24	0 of 9
Y29Q+S55T+F98M	3.38 3.76 3.34	2 of 9 (4.09)
L27S+S88I	3.18 3.28 3.88	2 of 9 (4.08)
Y29S+Y31F+D91W	2.30 3.45 2.77	3 of 9 (3.95)
D25R+S92W	2.48 2.77 2.85	5 of 9 (4.04)
S88W+G94W	2.33 2.85 1.35	3 of 9 (4.26)
Y29N+K50T+S55K	2.04 2.14 1.75	7 of 9 (4.55)
R28E+Q96Y+V97F	2.75 n.d. n.d.	2 of 9 (3.60)
D25H+S26R+N52P	5.39 n.d. 3.68	1 of 9 (2.85)
G24M+L27N+S89V	2.35 1.89 1.54	5 of 9 (3.66)
S26F+G49S+S92G	2.07 2.84 2.65	3 of 9 (4.10)
Y29I+S55W+F98Y	5.06 3.89 2.67	4 of 9 (3.93)
E23L+L27F+N52S	3.93 2.42 n.d.	0 of 9
R28W+Y30A+V97E	2.13 2.31 2.45	5 of 9 (4.11)
N33L+Q96W+V97T	4.37 3.65 n.d.	2 of 9 (3.12)
Y29D+S92Q+V97D	n.d. n.d. 3.00	0 of 9
R28E+Y30N+F95A	1.21 1.26 0.72	7 of 9 (3.87)
S55D+R90I+S93A	1.71 2.28 3.09	3 of 9 (3.89)
S55Y+D91V+F95Y	4.04 n.d. n.d.	0 of 9
L27M+R28I+P54K	n.d. n.d. 3.95	0 of 9
Y30N+P54R+F95V	1.31 1.11 0.57	1 of 9 (3.74)
S26P+Y31P+G94T	0.78 1.08 0.10	5 of 9 (4.02)
G24H+R53D+F95D	n.d. 4.15 n.d.	3 of 9 (3.39)
L27W+Q96D	4.21 n.d. n.d.	3 of 9 (4.20)
Y29W+R90D	3.35 3.27 2.85	6 of 9 (3.96)
N51I+S55A+S88K	n.d. n.d. n.d.	1 of 9 (2.88)
S26V+G94E	3.72 3.86 3.81	2 of 9 (3.63)
S26M+D91F+F98I	n.d. n.d. n.d.	2 of 9 (3.91)
P54Y+S88H+G94N	3.57 n.d. n.d.	1 of 9 (3.76)
D25F+S88E+S89G	n.d. 4.66 n.d.	1 of 9 (3.97)
Y30E+D91V+Q96R	3.35 2.67 2.46	4 of 9 (4.01)
N33T+K50W+R53K	n.d. n.d. n.d.	1 of 9 (5.13)
R90W	2.85 2.61 2.59	4 of 9 (4.12)
S26I+N33I+K50G	n.d. 3.40 n.d.	1 of 9 (3.54)
N52C+S93T+F98H	4.02 5.63 3.30	2 of 9 (3.75)

The opening 5 entries, copied out:

| changes | log10 Kd (nM) by replicate | empty controls |
|---|---|---|
| G49T+G94W | 5.50 n.d. n.d. | 4 of 9 (3.74) |
| G49C+K50Q+S55R | n.d. 4.40 4.50 | 3 of 9 (4.84) |
| S26T+S55L+Q96D | 3.42 3.53 3.12 | 5 of 9 (3.75) |
| Y30M+N33F+S92E | 3.37 n.d. n.d. | 2 of 9 (3.79) |
| R28W+S88I+V97F | n.d. n.d. n.d. | 0 of 9 |

The measurements come from Engelhart et al. 2022 (doi:10.1038/s41597-022-01779-4) through the FLAb antibody collection.